Measurements published in ChEMBL document CHEMBL3433997, “St. Jude Leishmania screening dataset” (2016).
This list holds what a sample rich in strong results left over.

Molecular target: Solute carrier family 2, facilitated glucose transporter member 1 (Homo sapiens) (UniProt P11166)
Test: ST_JUDE_LEISH: Cytotoxicity at 2uM final concentration against transgenic Leishmania Mexicana promastigotes LmGLUT1 that are glucose transport deficient and complemented with the human glucose transporter GLUT1. Activity is measured by DNA content using SYBR green in vitro
Type: functional

Compound | inhibition [%]
N=C(N)c1ccc(Oc2ccc(C(=N)N)cc2)cc1 | 3.97
CCCCCc1cnc2nc(N)nc(N)c2c1 | 3.59
COc1ccc(Cc2cnc3nc(N)nc(N)c3c2C)cc1OC | 26.4

Molecular target: Hexose transporter 1 (Plasmodium falciparum) (UniProt O97467)
Test: ST_JUDE_LEISH: Cytotoxicity at 2uM final concentration against transgenic Leishmania Mexicana promastigotes LmPfHT that are glucose transport deficient and complemented with the Plasmodium falciparum hexose transporter. Activity is measured by DNA content using SYBR green in vitro
Type: functional

Compound | inhibition [%]
N=C(N)c1ccc(Oc2ccc(C(=N)N)cc2)cc1 | 5.31
CCCCCc1cnc2nc(N)nc(N)c2c1 | 3.64
COc1ccc(Cc2cnc3nc(N)nc(N)c3c2C)cc1OC | 41.2

Molecular target: Glucose transporter (Leishmania mexicana) (UniProt O61059)
Test: ST_JUDE_LEISH: Cytotoxicity at 2uM final concentration against transgenic Leishmania Mexicana promastigotes LmGT2 that are glucose transport deficient and complemented with the L. Mexicana glucose transporter 2. Activity is measured by DNA content using SYBR green in vitro
Type: functional

Compound | inhibition [%]
N=C(N)c1ccc(Oc2ccc(C(=N)N)cc2)cc1 | 5.26
CCCCCc1cnc2nc(N)nc(N)c2c1 | 2.64
COc1ccc(Cc2cnc3nc(N)nc(N)c3c2C)cc1OC | 33
